This note sets out measurements from PubChem BioAssay AID504357 (The Scripps Research Institute Molecular Screening Center, 2011).

The chains behind the UniProt entries cited, without tags or fusion partners.
UniProt P35372, whole entry, looked up: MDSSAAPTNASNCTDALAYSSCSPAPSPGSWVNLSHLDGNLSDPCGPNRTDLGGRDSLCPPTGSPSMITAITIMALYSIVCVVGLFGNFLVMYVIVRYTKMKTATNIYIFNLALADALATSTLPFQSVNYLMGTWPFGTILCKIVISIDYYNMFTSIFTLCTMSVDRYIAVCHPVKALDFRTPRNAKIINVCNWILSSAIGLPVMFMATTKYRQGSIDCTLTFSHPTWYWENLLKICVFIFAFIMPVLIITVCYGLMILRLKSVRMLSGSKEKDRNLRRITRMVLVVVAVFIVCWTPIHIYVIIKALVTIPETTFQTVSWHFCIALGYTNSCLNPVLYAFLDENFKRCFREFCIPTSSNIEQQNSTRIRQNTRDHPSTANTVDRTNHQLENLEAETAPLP
UniProt P41143, whole entry, looked up: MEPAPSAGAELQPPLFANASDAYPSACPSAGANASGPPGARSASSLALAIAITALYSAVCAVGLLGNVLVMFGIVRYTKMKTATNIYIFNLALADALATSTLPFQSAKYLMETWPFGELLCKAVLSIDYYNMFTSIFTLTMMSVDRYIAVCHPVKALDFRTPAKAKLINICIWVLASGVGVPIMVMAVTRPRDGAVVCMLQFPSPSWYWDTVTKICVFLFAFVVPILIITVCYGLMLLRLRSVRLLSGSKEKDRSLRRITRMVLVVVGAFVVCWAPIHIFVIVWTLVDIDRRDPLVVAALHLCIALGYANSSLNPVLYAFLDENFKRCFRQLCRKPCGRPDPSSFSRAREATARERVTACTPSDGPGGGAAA

As a reminder, the inhibition is the drop in the measured response relative to a control, in per cent.

This is a selection; strong and weak results do not stand in their true shares. The source made the active and inactive calls. Rule as the data show it: active = inhibition above about 22% (passing the limit was not always enough); inactive = the rest.

The experiment concerns the target Mu-type opioid receptor (Homo sapiens) + Delta-type opioid receptor (Homo sapiens) (UniProt P35372+P41143). Kind of experiment: OPRM1-OPRD1 heterodimer inverse agonism – cell-based, luminescence, primary screen (AID 504357).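 Also: 0% = cells with DMSO and 100% = wells without cells with DMSO.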 Conditions: cell-based MOR-DOR heterodimer luminescence, at 9.3 µM, hits give high values.
On to `O=C(Cn1cnc2c(NC(=O)OCc3ccccc3)ncnc21)NCCN1CCOCC1`, for which the inhibition was inactive: 7.99%.

For `CC(C)NC(=O)Cn1c(SCC(=O)NC2CCCC2)nc2ccccc21`, the inhibition is inactive: 19.9%.

Take `N=c1n(CCN2CCCC2)c2ccccc2n1CC(O)c1ccc(Cl)c(Cl)c1` (stereo unspecified): the inhibition was inactive: -10%.

`C=CCn1c(=O)c2c(nc3n2CCN3c2cccc(Cl)c2C)n(C)c1=O`: the inhibition is inactive: 13.5%.

Regarding `O=C(c1ccccc1)N1CCn2c(nc3ccccc32)C1`, the inhibition is inactive: 5.45%.

Take `O=[N+]([O-])c1ccc2c(c1)nc1n2CCN(c2ccccc2)C1`: the inhibition is inactive: 10.7%.

In the case of `CCc1ccc(S(=O)(=O)N2c3ccc(C)cc3C3CN(C)CCC32)cc1` (stereo unspecified), the inhibition was inactive: 8.13%.

Consider `CCc1cccc(C)c1N(C(=O)Cn1c(COC)nc2ccccc21)C(C)COC` (stereo unspecified), for which the inhibition is inactive: 12.3%.

Turning to `Cc1ccc(NC(=O)CCC(=O)N/N=C/C=C/c2ccccc2)cc1`, the inhibition was inactive: -11.2%.

As for `CC(C)NC(=O)Cn1c(SCC(=O)N2CCCc3ccccc32)nc2ccccc21`, the inhibition is inactive: 10.7%.

For `Cc1nc2ccccc2n1CC(=O)N/N=C\c1ccccn1`, the inhibition is inactive: -11.3%.

For `CCN1C(=O)C2(Nc3ccccc3-c3nc4ccccc4n32)c2cc(OC)ccc21` (stereo unspecified), the inhibition is inactive: 0.82%.

As for `O=C(Cn1cnc2c(NC(=O)OCc3ccccc3)ncnc21)NCc1ccccn1`, the inhibition is inactive: 5.19%.

For the molecule `Cc1nc2ccccc2n1CC(=O)NN`, the inhibition was inactive: -0.02%.

Turning to `CCc1ccc(NC(=O)Cn2c(SC)nc3ccccc32)cc1`, the inhibition was inactive: 2.37%.

In the case of `CCC(C)N(CC(C)C)C(=S)SC(NC(C)=O)C(Cl)(Cl)Cl` (stereo unspecified), the inhibition is inactive: 4.05%.

As for `CC1CC(C)CN(C(=O)Cn2c(SCC(=O)N3CCc4ccccc4C3)nc3ccccc32)C1` (stereo unspecified), the inhibition is inactive: 2.05%.

In the case of `COc1ccccc1NC(=O)Cn1cnc2c1c(=O)n(C)c(=O)n2C`, the inhibition is inactive: 11.1%.

On to `COc1ccc(N2C(=O)CC(n3cnc4ccccc43)C2=O)cc1` (stereo unspecified), for which the inhibition is inactive: 10.8%.

In the case of `Cc1ccc2c(c1)C1CN(C)CCC1N2C(=O)Cc1cccs1` (stereo unspecified), the inhibition was inactive: -8.49%.

As for `CN1C(=O)C2(Nc3ccccc3-c3nc4ccccc4n32)c2ccccc21` (stereo unspecified), the inhibition is inactive: 15%.

With `CCC(C)[C@H](NC(=O)N1CCn2c1nc1ccccc12)C(=O)NCc1ccccc1` (stereo partly specified), the inhibition is inactive: -9.02%.

For `Cc1ccc(NC(=O)Cn2cnc3ccccc32)cc1C`, the inhibition is inactive: 2.51%.

`CSc1nc2ccccc2n1CC(=O)Nc1ccccc1`: the inhibition was inactive: 9.34%.

As for `Cc1nc2ccccc2n1CCN1CCOCC1`, the inhibition is inactive: 13.3%.

As for `CCOC(=O)c1ccccc1NC(=O)CSc1nc2ccccc2n1CC(=O)N1CCCC1`, the inhibition was inactive: 6.5%.

As for `Cc1ccc(-c2csc(NC(=O)Cn3cnc4c3c(=O)n(C)c(=O)n4C)n2)cc1C`, the inhibition is inactive: 8.28%.

Turning to `Cc1ccc2c(c1)[C@@H]1CN(C)CC[C@@H]1N2C(=O)Nc1cccc(C(F)(F)F)c1`, the inhibition is inactive: -18.5%.

Turning to `O=S(=O)(Nc1ccc2c(c1)nc1n2CCN(Cc2ccccc2)C1)c1ccc(F)cc1`, the inhibition was inactive: 11.6%.

For the molecule `CC1Cc2ccccc2N1C(=O)Cn1cnc2ccccc21` (stereo unspecified), the inhibition is inactive: 4.47%.

For the molecule `C[C@H](O)[C@@H]1C(=O)N2CCc3ccc(N4CCN(C)CC4)cc3[C@@H]2C[C@@H]1N(C)C(=O)c1ccc(C#N)cc1`, the inhibition was inactive: -3.16%.

On to `CCN(CC)CCn1c(NC(=O)c2ccc(C(F)(F)F)cc2)nc2ccccc21`, for which the inhibition is inactive: -5.14%.

Take `Cn1c(=O)c2c(nc(CN3CCOCC3)n2CCN2CCOCC2)n(C)c1=O`: the inhibition is inactive: 0.12%.

As to `CCN(CC)C(=O)Cn1c(=O)n(Cc2ccccc2Cl)c2c1c(=O)n(C)c(=O)n2C`, the inhibition is inactive: 1.44%.

Take `CCc1cccc(C)c1N(C(=O)Cn1c(=O)[nH]c2ccccc21)C(C)COC` (stereo unspecified): the inhibition was inactive: -2.49%.

Turning to `O=C(OC1CN2CCC1CC2)c1cccc([N+](=O)[O-])c1` (stereo unspecified), the inhibition was inactive: 8.82%.

Consider `CCC(C)[C@H](NC(=O)N1CCn2c1nc1ccccc12)C(=O)NCC1CCCO1` (stereo partly specified), for which the inhibition is inactive: 9%.

As to `CCCCOc1ccccc1NC(=O)Cn1c(-c2nonc2N)nc2ccccc21`, the inhibition is inactive: -22.9%.

As to `CSc1nc(N)nc2c1ncn2CC(=O)N1CCN(Cc2c(C)cc(C)cc2C)CC1`, the inhibition was inactive: -69.7%.

With `COc1cccc(CNc2nc3ccccc3n2CCN2CCCCC2)c1OC`, the inhibition is inactive: -13.5%.

Consider `CCN(CC)C(=O)Cn1cnc2c1c(=O)n(C)c(=O)n2C`, for which the inhibition is inactive: 9.1%.

For `CC(C)N(C(=O)Cn1c(Cl)nc2ccccc21)C(C)C`, the inhibition was inactive: 8.12%.

Regarding `CCC(NC(=O)Cn1cnc2c(=O)n(C)c(=O)n(C)c21)c1ccccc1` (stereo unspecified), the inhibition is inactive: 6.07%.

As to `O=C1Cn2c(nc3ccccc32)-c2ccccc2N1`, the inhibition is inactive: 1.94%.

As for `COc1ccc(CCNC(=O)[C@H](CC(C)C)NC(=O)N2CCn3c2nc2ccccc23)cc1OC`, the inhibition is inactive: 2.71%.

As for `O=C(c1ccccc1Cl)N1CCn2c1nc1ccccc12`, the inhibition was inactive: 13%.

With `Cc1ccc2c(c1)C1CN(C)CCC1N2C(=O)COc1ccc(S(=O)(=O)N2CCOCC2)cc1` (stereo unspecified), the inhibition was inactive: 7.2%.

Take `CCOC(=O)c1ccc(NC(=O)C(C)(CCl)SC)cc1` (stereo unspecified): the inhibition was inactive: 10.6%.

Regarding `O=C(Cn1c(-c2cscn2)nc2ccccc21)Nc1cc(F)ccc1F`, the inhibition is inactive: 8.96%.

As to `Cc1ccc2c(c1)C1C[N+](C)(CC(=O)c3ccc(Cl)cc3Cl)CCC1N2C(=O)c1ccc(F)cc1` (stereo unspecified), the inhibition was inactive: 3.28%.

On to `CN1CCC2(CC1)Nc1nc(SCc3ccc(Cl)cc3)nn1C1=C2CN(C)CC1`, for which the inhibition was inactive: 10.6%.

Regarding `Cc1ccc(SCc2nc3ccccc3n2CC(=O)Nc2ccc(Cl)cc2)cc1`, the inhibition is inactive: -17.6%.

For the molecule `Cc1cc(N2C(=O)CC(N3CCC(n4c(=O)[nH]c5ccccc54)CC3)C2=O)no1` (stereo unspecified), the inhibition was inactive: 6.49%.

In the case of `CC(C)NC(=O)Cn1c(SCC(=O)N2CCc3ccccc3C2)nc2ccccc21`, the inhibition was inactive: -8.03%.

In the case of `COc1cc(Cl)c(C)cc1NC(=O)Cn1c(NCCO)nc2ccccc21`, the inhibition was inactive: 13.1%.

On to `CCOCCn1c(=O)c2c(nc3n2CCN3c2ccc(CC)cc2)n(C)c1=O`, for which the inhibition is inactive: 16.9%.

Turning to `N#CCC(=O)N/N=C\c1ccc(OC/C=C/c2ccccc2)cc1`, the inhibition was inactive: -11.8%.

As to `FC(F)(F)c1cccc(-n2nnnc2C2(N3CCOCC3)CCCCC2)c1`, the inhibition is inactive: 8.49%.

`Cc1ccc2c(c1)C1CN(C)CCC1N2C(=S)Nc1cccnc1` (stereo unspecified): the inhibition is inactive: 7.64%.

For `CC(C)(C)C(=O)NC(Sc1ncccn1)C(Cl)(Cl)Cl` (stereo unspecified), the inhibition was inactive: 2.09%.

For the molecule `Cn1c(=O)c2ncn(CC(=O)Nc3cc(C(F)(F)F)ccc3N3CCOCC3)c2n(C)c1=O`, the inhibition was inactive: 12%.

For the molecule `CCCC(=O)Nc1nnc(/C=C/c2ccccc2)s1`, the inhibition is inactive: 9.29%.

Take `Cn1c(=O)c2c(ncn2CC(=O)Nc2nnc(Cc3ccccc3)s2)n(C)c1=O`: the inhibition is inactive: 9.27%.

For the molecule `C[C@H](O)[C@@H]1C(=O)N2CCc3ccc(N4CCOCC4)cc3[C@@H]2C[C@@H]1N(C)C(=O)C(C)(C)C`, the inhibition was inactive: -1.83%.

With `O=C(NCCn1c(C(F)(F)F)nc2cc(C(F)(F)F)ccc21)[C@H]1CCCN1c1nc(CN2CCCCC2)cs1`, the inhibition was inactive: 10.1%.

On to `Cc1cc(C)cc(NC(=O)Cn2c(-c3ccccc3Cl)nc3ccccc32)c1`, for which the inhibition is inactive: -3.37%.

On to `Brc1cccc(CNc2nc3ccccc3n2CCN2CCOCC2)c1`, for which the inhibition was inactive: 3.33%.

`Cc1ccc(CNC(=O)CCCCCNC(=O)N2CCn3c2nc2ccccc23)cc1`: the inhibition was inactive: 5.53%.

`S=C(Nc1ccccc1)N1CCn2c(nc3ccccc32)C1`: the inhibition is inactive: 2.63%.

As to `Cc1ccc(CSc2nc3ccncc3n2CC(=O)Nc2cc(C)cc(C)c2)cc1`, the inhibition is inactive: -36.1%.

On to `NNC(=O)Cn1c(-c2nonc2N)nc2ccccc21`, for which the inhibition is inactive: -34.4%.

With `Clc1n[nH]nc1-c1nn[nH][15n]1`, the inhibition was inactive: 12.7%.

Turning to `COc1ccc(/C=N/NC(=O)Cn2c(Cc3ccc(OC)c(OC)c3)nc3ccccc32)cc1OC`, the inhibition was inactive: -11.4%.

Consider `COc1ccc(OCC(O)Cn2c(=N)n(CCN3CCOCC3)c3ccccc32)cc1` (stereo unspecified), for which the inhibition was inactive: -10.9%.

Take `CN(C)CCn1c(NC(=O)c2ccc(Cl)cc2)nc2ccccc21`: the inhibition was inactive: 4.13%.

Take `O=C(Cn1c(C(F)(F)F)nc2ccccc21)Nc1ccccc1C(=O)O`: the inhibition was inactive: 13%.

For the molecule `COc1ccc(CNC(=O)Cn2cnc3c(SC)nc(N)nc32)cc1`, the inhibition is inactive: 10.5%.

As for `CCN(CC)CCn1c(NCc2cccc(OC)c2)nc2ccccc21`, the inhibition was inactive: 8.92%.

`O=C(Cn1c(NCCO)nc2ccccc21)NCCc1ccc(F)cc1`: the inhibition is inactive: 9.1%.

Turning to `CC(NC(=O)Cn1c(NCCO)nc2ccccc21)C1CC2CCC1C2` (stereo unspecified), the inhibition was inactive: 16.1%.

With `Cn1c(=O)c2c(ncn2CC(=O)N2CCN(c3ccc(F)cc3)CC2)n(C)c1=O`, the inhibition is inactive: 13.8%.

Turning to `O=C(Cn1c(SCc2ccccc2)nc2ccccc21)N1CCOCC1`, the inhibition is inactive: 13.4%.

With `CCCCNC(=O)CC1C(=O)N(Cc2ccccc2)C(C)c2nc3ccccc3n21` (stereo unspecified), the inhibition was inactive: 9.41%.

As to `CCOP(=O)(NC(=NC(C)c1ccccc1)NC(C)c1ccccc1)OCC` (stereo unspecified), the inhibition is inactive: 19.8%.

As to `CC(C)(C)NC(=O)Cn1c(=O)n(CC(=O)NC(C)(C)C)c2ccccc21`, the inhibition was inactive: -4.99%.

As to `Cn1c(=O)c2c(ncn2CC(=O)N2CCCc3ccccc32)n(C)c1=O`, the inhibition is inactive: 6.75%.

Take `O=P1(Nc2ccccn2)COc2ccccc2OC1`: the inhibition is inactive: 5.9%.

Take `COc1cccc(CNC(=O)CCCCCNC(=O)N2CCn3c2nc2ccccc23)c1`: the inhibition is inactive: 9.21%.

Take `CCC1=CC2Cc3nc4ccc(Cl)cc4c(N)c3C(C1)C2` (stereo unspecified): the inhibition is inactive: -18.2%.

Take `O=C(Cn1c(-c2cscn2)nc2ccccc21)Nc1ccc2ccccc2c1`: the inhibition was inactive: -13.8%.

For the molecule `CCN1C(=O)CC(N2CCC(Nc3ccc(F)cc3)CC2)C1=O` (stereo unspecified), the inhibition was inactive: 3.07%.
